Tests used:
[1] = target: BACE1 (Homo sapiens, UniProt P56817); assay: Biochemical FRET based assay; settings: recombinant BACE1 1 μg/ml, 120 minutes at room temperature, pH 5.0
[2] = tested on: Abeta 1-42; assay: Cellular αLisa assay in SKNBE2 cells, Abeta 1-42; settings: human neuroblastoma SKNBE2 expressing hAPP695, incubated for 18 hours
[3] = tested on: Abeta total; assay: Cellular αLisa assay in SKNBE2 cells, Abeta total; settings: human neuroblastoma SKNBE2 expressing hAPP695, incubated for 18 hours

Amino acid sequences for entries named in this document (tags omitted). Residues count along the entry.
UniProt P56817, 46-501 limits assumed: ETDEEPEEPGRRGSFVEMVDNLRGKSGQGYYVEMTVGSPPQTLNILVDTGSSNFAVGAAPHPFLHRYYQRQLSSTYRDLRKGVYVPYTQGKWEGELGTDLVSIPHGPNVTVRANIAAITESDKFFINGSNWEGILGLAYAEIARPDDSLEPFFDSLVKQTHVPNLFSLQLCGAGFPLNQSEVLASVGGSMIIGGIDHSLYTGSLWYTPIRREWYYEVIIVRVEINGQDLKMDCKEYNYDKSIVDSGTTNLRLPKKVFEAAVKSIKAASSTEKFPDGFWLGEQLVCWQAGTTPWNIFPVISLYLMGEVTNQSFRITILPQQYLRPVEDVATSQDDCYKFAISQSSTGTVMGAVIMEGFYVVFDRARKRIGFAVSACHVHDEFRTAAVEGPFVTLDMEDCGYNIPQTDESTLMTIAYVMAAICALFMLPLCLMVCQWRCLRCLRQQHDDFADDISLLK

Biochemical FRET based assay pIC50 [1]	Cellular αlisa assay in SKNBE2 cells Aβ42 pIC50 [2]	Cellular αlisa assay in SKNBE2 cells Aβtotal pIC50 [3]	Structure (SMILES)
6.09	6.73	6.82	CN1CC(N)=NC(C)(c2cccc(NC(=O)c3ccc(C#N)cn3)c2)C1=O (stereo not drawn)
5.86	7.17	7.10	CN1CC(N)=NC(C)(c2cccc(NC(=O)c3ccc(C(F)(F)F)cn3)c2)C1=O (stereo not drawn)
